How the values were obtained:
[1] = molecular target: HDAC7 (Homo sapiens (Human), UniProt Q8WUI4); assay: HDAC7 enzymatic assay; conditions: read-out: HDAC7 IC50; Comparison Results
[2] = molecular target: HDAC8 (Homo sapiens (Human), UniProt Q9BY41); assay: HDAC8 enzymatic assay; conditions: read-out: HDAC8 IC50; Comparison Results
[3] = molecular target: HDAC2 (Homo sapiens (Human), UniProt Q92769); assay: HDAC2 enzymatic assay; conditions: read-out: HDAC2 IC50; Comparison Results
[4] = molecular target: HDAC5 (Homo sapiens (Human), UniProt Q9UQL6); assay: HDAC5 enzymatic assay; conditions: read-out: HDAC5 IC50; Comparison Results
[5] = molecular target: HDAC10 (Homo sapiens (Human), UniProt Q969S8); assay: HDAC10 enzymatic assay; conditions: read-out: HDAC10 IC50; Comparison Results
[6] = molecular target: HDAC3/NCOR2 (Homo sapiens (Human), UniProt O15379); assay: HDAC3 enzymatic assay; conditions: read-out: HDAC3 IC50; Comparison Results
[7] = molecular target: HDAC11 (Homo sapiens (Human), UniProt Q96DB2); assay: HDAC11 enzymatic assay; conditions: read-out: HDAC11 IC50; Comparison Results
[8] = molecular target: HDAC9 (Homo sapiens (Human), UniProt Q9UKV0); assay: HDAC9 enzymatic assay; conditions: read-out: HDAC9 IC50; Comparison Results
[9] = molecular target: HDAC4 (Homo sapiens (Human), UniProt P56524); assay: HDAC4 enzymatic assay; conditions: read-out: HDAC4 IC50; Comparison Results

Sequences of proteins named here, by UniProt entry; tags and fusion partners are left off.
UniProt Q8WUI4, whole entry: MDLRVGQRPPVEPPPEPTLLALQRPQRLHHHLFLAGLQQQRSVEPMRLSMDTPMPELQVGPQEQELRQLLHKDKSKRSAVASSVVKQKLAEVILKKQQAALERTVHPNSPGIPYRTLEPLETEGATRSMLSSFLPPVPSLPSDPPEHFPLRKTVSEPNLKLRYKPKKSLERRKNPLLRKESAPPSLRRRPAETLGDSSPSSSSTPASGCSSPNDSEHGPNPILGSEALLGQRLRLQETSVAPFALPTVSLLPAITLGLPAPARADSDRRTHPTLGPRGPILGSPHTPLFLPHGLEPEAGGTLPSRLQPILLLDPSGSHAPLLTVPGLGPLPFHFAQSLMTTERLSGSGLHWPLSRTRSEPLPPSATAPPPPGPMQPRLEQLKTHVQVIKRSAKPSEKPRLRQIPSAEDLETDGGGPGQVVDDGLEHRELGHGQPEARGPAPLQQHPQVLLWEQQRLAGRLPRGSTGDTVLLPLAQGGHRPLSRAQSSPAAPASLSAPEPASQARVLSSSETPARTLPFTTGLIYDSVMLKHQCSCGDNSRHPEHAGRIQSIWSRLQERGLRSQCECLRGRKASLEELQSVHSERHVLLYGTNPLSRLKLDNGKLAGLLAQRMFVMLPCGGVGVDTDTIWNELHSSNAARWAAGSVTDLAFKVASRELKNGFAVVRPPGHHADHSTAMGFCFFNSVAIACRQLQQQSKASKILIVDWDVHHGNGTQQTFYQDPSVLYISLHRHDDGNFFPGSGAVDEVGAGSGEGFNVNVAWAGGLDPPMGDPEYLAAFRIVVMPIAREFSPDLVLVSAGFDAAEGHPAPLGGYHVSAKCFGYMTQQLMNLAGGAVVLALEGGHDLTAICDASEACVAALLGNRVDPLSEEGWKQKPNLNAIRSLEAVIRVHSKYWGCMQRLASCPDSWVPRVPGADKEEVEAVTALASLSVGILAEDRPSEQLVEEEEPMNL
UniProt Q9BY41, whole entry: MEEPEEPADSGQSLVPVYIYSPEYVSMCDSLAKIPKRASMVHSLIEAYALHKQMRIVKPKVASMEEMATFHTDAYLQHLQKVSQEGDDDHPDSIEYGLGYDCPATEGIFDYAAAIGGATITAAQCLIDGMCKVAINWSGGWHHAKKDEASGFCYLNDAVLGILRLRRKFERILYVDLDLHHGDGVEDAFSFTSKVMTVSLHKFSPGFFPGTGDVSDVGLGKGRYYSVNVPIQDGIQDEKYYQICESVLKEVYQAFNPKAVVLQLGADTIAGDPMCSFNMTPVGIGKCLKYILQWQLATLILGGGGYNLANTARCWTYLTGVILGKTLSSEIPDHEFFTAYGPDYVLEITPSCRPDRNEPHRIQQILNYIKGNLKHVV
UniProt Q92769, whole entry: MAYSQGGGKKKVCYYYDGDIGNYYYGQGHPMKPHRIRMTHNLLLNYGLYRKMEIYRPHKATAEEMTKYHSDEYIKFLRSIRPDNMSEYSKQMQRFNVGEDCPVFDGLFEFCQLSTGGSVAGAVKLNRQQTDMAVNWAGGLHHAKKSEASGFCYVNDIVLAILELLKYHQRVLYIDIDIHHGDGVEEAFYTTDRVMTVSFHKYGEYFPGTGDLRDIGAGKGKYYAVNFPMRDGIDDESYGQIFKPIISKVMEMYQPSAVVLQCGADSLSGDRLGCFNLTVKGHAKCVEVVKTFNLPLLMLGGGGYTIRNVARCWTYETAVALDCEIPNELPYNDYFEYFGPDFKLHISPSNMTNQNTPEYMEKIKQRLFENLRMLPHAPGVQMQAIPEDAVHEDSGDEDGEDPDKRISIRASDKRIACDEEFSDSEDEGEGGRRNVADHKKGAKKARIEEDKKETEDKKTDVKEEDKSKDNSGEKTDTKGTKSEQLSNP
UniProt Q9UQL6, whole entry: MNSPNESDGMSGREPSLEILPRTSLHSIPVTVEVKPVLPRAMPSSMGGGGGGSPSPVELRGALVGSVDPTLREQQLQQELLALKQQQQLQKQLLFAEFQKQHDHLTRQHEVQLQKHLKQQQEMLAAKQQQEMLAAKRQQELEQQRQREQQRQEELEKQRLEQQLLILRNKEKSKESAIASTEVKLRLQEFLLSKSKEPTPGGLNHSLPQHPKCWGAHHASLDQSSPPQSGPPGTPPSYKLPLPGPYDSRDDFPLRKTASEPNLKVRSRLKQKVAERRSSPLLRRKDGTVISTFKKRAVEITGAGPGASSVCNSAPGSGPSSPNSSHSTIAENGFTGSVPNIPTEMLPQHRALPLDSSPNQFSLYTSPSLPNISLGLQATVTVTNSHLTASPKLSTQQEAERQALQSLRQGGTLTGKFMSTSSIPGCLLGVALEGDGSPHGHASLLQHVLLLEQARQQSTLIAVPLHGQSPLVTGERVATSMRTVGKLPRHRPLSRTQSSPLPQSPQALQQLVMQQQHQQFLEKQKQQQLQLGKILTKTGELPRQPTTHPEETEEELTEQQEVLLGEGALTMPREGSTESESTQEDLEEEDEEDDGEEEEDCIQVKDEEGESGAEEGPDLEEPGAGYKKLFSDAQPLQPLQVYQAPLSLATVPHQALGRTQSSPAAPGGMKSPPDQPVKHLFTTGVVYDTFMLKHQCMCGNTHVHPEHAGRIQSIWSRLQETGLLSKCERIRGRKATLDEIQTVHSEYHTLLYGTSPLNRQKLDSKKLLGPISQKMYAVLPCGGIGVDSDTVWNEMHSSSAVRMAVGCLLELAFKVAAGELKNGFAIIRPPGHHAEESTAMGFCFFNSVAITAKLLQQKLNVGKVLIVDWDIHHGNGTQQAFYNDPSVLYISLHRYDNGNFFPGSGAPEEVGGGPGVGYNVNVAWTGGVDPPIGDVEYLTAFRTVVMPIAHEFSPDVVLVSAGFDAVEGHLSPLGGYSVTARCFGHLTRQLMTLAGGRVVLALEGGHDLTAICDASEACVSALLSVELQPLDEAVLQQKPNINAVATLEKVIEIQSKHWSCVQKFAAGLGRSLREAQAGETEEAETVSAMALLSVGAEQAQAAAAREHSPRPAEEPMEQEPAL
UniProt Q969S8, whole entry: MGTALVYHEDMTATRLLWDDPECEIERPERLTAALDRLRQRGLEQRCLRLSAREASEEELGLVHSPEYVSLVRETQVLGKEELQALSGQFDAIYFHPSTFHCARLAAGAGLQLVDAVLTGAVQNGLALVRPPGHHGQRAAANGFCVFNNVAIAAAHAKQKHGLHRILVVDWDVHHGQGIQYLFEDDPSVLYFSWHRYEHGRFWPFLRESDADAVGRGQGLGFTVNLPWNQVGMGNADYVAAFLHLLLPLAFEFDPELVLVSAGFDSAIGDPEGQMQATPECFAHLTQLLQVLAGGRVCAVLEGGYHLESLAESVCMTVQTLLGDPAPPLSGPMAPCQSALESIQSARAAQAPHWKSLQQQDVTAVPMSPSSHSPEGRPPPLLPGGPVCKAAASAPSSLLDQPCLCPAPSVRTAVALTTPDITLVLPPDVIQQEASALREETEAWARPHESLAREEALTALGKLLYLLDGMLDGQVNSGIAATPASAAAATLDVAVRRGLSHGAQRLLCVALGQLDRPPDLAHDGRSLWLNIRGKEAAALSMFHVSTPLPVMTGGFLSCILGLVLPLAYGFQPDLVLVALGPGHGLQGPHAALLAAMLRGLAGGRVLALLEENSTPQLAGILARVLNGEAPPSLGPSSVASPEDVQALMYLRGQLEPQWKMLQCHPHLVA
UniProt O15379, whole entry: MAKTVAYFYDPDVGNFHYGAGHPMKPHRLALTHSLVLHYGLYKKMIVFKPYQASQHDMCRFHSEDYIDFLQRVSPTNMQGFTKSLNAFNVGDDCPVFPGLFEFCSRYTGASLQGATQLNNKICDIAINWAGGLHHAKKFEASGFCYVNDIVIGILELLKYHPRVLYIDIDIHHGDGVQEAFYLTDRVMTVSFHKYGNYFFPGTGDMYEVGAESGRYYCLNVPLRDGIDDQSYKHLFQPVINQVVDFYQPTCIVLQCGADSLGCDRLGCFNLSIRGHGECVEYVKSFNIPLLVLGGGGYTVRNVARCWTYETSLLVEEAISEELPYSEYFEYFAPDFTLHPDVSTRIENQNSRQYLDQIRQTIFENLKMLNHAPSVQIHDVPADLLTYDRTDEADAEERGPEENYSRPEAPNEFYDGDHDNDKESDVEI
UniProt Q96DB2, whole entry: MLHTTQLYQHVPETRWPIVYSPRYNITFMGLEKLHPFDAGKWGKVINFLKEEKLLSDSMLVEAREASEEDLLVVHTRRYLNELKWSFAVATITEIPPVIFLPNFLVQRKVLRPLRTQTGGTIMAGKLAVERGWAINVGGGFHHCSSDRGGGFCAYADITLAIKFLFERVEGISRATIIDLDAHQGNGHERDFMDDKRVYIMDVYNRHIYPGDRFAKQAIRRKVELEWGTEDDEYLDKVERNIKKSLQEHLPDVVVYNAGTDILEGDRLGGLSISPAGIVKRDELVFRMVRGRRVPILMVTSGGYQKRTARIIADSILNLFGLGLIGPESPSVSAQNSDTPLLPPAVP
UniProt Q9UKV0, whole entry: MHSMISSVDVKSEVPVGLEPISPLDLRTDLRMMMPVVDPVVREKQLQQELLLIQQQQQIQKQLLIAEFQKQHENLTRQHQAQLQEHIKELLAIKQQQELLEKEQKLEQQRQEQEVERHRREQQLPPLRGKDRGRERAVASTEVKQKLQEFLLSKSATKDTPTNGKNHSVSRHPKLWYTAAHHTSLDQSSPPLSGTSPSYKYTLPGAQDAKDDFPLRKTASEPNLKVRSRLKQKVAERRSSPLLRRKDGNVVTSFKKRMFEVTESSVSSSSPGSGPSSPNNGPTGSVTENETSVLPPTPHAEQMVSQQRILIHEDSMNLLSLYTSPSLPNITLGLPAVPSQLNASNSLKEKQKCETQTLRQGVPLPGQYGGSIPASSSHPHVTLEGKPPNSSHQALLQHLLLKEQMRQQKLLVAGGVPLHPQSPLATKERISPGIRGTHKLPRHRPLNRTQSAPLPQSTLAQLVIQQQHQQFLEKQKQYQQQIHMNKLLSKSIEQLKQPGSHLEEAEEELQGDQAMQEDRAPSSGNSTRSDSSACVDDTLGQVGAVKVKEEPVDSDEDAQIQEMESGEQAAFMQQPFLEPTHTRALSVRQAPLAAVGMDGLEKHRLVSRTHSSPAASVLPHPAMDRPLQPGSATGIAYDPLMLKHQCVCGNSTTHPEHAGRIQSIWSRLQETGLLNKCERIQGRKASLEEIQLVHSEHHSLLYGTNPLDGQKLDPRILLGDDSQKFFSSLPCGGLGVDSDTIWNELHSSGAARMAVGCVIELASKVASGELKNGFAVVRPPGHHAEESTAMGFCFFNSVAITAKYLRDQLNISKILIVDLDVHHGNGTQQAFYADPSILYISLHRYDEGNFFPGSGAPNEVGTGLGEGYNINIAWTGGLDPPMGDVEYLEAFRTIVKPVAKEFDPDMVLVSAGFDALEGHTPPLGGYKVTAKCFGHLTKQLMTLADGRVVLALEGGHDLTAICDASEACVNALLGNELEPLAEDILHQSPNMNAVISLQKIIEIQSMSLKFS
UniProt P56524, whole entry: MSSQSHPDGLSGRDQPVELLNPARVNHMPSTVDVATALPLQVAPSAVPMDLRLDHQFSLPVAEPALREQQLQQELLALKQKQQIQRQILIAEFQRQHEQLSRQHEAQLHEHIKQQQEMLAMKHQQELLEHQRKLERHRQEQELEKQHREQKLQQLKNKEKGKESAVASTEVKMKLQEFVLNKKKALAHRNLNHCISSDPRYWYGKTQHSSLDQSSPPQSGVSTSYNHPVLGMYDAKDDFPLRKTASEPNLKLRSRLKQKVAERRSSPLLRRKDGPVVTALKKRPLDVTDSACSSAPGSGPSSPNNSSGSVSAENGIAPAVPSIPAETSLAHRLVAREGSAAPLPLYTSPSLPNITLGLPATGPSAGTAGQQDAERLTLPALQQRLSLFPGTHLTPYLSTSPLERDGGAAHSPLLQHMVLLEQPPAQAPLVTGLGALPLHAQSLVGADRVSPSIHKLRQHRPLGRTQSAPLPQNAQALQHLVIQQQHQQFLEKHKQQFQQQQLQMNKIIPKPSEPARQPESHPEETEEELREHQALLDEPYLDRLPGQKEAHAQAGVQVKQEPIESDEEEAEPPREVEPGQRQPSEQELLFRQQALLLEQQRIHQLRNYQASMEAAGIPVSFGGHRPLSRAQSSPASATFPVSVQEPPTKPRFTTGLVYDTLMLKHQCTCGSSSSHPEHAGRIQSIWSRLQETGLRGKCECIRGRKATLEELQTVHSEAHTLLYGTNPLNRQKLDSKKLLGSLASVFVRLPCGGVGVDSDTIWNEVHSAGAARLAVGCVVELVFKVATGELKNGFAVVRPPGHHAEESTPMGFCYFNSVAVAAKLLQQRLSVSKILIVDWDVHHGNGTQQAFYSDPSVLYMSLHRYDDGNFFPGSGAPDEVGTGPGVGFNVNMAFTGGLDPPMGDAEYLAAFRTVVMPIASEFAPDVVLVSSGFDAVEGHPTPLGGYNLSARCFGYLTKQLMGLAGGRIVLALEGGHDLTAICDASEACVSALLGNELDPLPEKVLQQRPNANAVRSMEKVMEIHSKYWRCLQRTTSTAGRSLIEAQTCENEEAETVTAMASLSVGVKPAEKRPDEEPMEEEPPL

Measured: IC50

FC(F)(F)c1nnc(-c2cnc(NC3(c4ccccc4)CC3)nc2)o1 [Example 1, N-(1-phenylcyclopropyl)-5-(5-(trifluoromethyl)-1,3,4-oxadiazol-2-yl) pyrimidin-2-amine]
> 30 µM: all assays above

FC(F)c1nnc(-c2cnc(NC3(c4ccccc4)CC3)nc2)o1 [Example 4, 5-(5-(difluoromethyl)-1,3,4-oxadiazol-2-yl)-N-(1-phenylcyclopropyl)pyrimidin-2-amine]
> 30 µM: all assays above

From patent US10357493B2, “Metalloenzyme inhibitor compounds” (Selenity Therapeutics (Bermuda), Ltd., priority 2017, dated 2019)
